## Ab-14 light chain CDR variants: yeast mating affinities

Antigen: PDVDLGDISGINAS, a 14-residue peptide of the SARS-CoV-2 spike HR2 region.

Ab-14 is the parent antibody, in scFv form: VH, then the linker GGGGSGGGGSGGGGS, then VL. The heavy chain is unchanged in all variants.
VH: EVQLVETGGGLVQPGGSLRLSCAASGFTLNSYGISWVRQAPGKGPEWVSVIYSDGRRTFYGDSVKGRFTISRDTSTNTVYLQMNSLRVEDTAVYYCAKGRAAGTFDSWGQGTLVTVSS
VL: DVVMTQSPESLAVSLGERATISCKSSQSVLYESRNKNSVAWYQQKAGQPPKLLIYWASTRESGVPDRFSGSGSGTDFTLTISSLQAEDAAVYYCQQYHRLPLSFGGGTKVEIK

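The parent was found by panning a naive human phage display library on the peptide. The variants were designed computationally from a first round of random CDR variants and then made and measured. Their group label is 14L_En_Gen (En: ensemble of fine-tuned language models; Gen: genetic algorithm). AlphaSeq pools MATa yeast showing the antibodies with MATalpha yeast showing the peptide. After mating in shaken culture at 30 °C for 16 h, diploids were selected and their barcode pairs sequenced. A regression on co-assayed BCL2-family reference pairs converts the normalised counts of each replicate to an apparent Kd. There are six technical replicates.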

Each variant is given by its three light chain CDRs, as the data file delimits them; those of the parent are KSSQSVLYESRNKNSVA, WASTRES, QQYHRLPLS. The read-out is the apparent dissociation constant on a log10 scale (nM): the lower, the stronger. Averages over replicates are reported, and they cover detected replicates only. "ND" marks a missing value. The strain was present, yet no cells mated with the target were sequenced in that replicate, which points to weak or no binding. Empty control strains, which show no peptide, gave a signal in 4% of pairings with all light chain designs; the median was 2.64 and 95% of these signals were weaker than 1.59. No background was subtracted. Also given: how often the same scFv was detected with the empty control strains, with their mean in brackets.

| CDR-L1 | CDR-L2 | CDR-L3 | replicates, log10 nM | mean, log10 nM | signal with controls |
|---|---|---|---|---|---|
| MISQLMNMGQFAINSVA | QASERSN | QQYDRLPLV | 2.39 1.40 2.01 2.33 2.80 1.78 | 2.12 | 1/18 (2.72) |
| KISQMVRVGSTHSNSIA | EEATRAK | QQYHRLPLQ | 1.25 0.93 1.01 0.87 0.95 1.14 | 1.02 | 3/18 (3.34) |
| KLSMVTGHLSMAKNNVA | EMATREK | QQYERLPLS | ND ND ND ND 1.80 ND | 1.80 | 0/18 |
| TISQLTSSFSQNINNVA | EVSTRLN | QQYDRLPLA | 0.60 1.03 0.43 0.35 0.58 0.68 | 0.61 | 0/18 |
| MLSQMWALGSKVKNSVA | QASMRFN | QQYDRLPLI | 2.21 2.63 1.52 1.70 1.52 2.27 | 1.98 | 0/18 |
| KVSEFERGLMSRQDSIA | DNVTRNN | QQYDRLPLS | ND 2.61 ND ND ND ND | 2.61 | 1/18 (1.95) |
| MMSQVTGLGQRHRNNVA | QTSTRCE | QQYDRLPLV | 0.97 1.51 1.17 1.48 1.34 1.73 | 1.37 | 2/18 (3.05) |
| MISNVMNTLTRYGNNVA | DLTEREK | QQYFQLPLS | 1.17 1.08 0.74 1.33 0.94 1.08 | 1.06 | 0/18 |
| KISQMVKVGATHSNSIA | EEVTRAK | QQYHRLPLS | 0.45 0.85 0.83 0.85 0.78 0.97 | 0.79 | 0/18 |
| IIAQLMFWGNKSANSIA | QAEERTN | QQYHHLPLS | ND ND ND ND ND ND | ND | 0/18 |
| MFSQMWGVGSKAKNSVA | QASMRFN | QQYDRLPLI | 0.82 0.69 1.00 0.64 0.70 2.72 | 1.10 | 1/18 (1.83) |
| MISQLYNMGQFAINSVA | QASIRND | QQYDRLPLM | 2.00 0.83 2.55 1.38 1.17 1.33 | 1.54 | 0/18 |
| HVSMLTLGGLKNRNSVA | QMTTRVN | QQYDRLPLA | 1.38 4.21 1.28 1.60 1.39 1.44 | 1.88 | 0/18 |
| KISQMVKVGSTHSNSIA | EEQTRAN | QQYHRLPLS | 0.24 0.43 0.40 0.22 0.11 0.54 | 0.32 | 0/18 |
| HITMGMYVSGRYKSNIA | QAETREK | QQYDRLPLT | 0.46 0.25 0.31 0.51 0.13 0.57 | 0.37 | 0/18 |
| IVSQLMLWGWHAKNSIA | EAQTRVN | QQYDRLPLI | ND ND 2.38 ND 1.51 ND | 1.95 | 0/18 |
| MMSQVTGYGTRMRNNVA | QTSVREA | QQYDRLPLI | 0.51 0.55 0.33 0.51 0.58 0.71 | 0.53 | 1/18 (2.58) |
| TISQLHNMGTFAINSVA | QAEIRNA | QQYDRLPLA | 0.53 0.40 0.39 -0.09 0.45 0.59 | 0.38 | 0/18 |
| KLTSVTGTEKVRGNNVA | EMETREK | QQYNRLPLA | 0.11 0.16 0.16 0.15 -0.01 0.33 | 0.15 | 2/18 (2.63) |
| HLGLATMLEAQVRNSVA | NNSTRES | QQYDRLPLS | 0.06 0.34 -0.03 0.03 0.00 0.21 | 0.10 | 0/18 |
| KVSEFMKGLMMRKDSIA | DNNTRGS | QQYDRLPLS | 1.59 1.43 0.99 1.11 0.82 0.93 | 1.14 | 2/18 (3.45) |
| KLVQFMNRGTHHTSNIA | DAQNRID | QQYARLPLA | ND 1.34 1.04 ND 0.79 2.84 | 1.50 | 0/18 |
| IVSQLMLWGMHAKNSIA | EAEQRLN | QQYERLPLF | 1.68 1.14 1.94 0.96 2.54 1.97 | 1.70 | 0/18 |
| KLTMITGLEKVSKNNVA | EMETRER | QQYARLPLA | 0.57 0.34 0.70 -0.06 0.46 0.33 | 0.39 | 0/18 |
| IVSQLMLWGMHIKNSIA | EAQTRLN | QQYDRLPLF | ND ND ND ND ND ND | ND | 0/18 |
| KLYSINGTEKVHGNNVA | EMETRER | QQYNRLPLA | 0.91 1.44 0.83 1.21 1.13 1.01 | 1.09 | 1/18 (0.88) |
| KISQMHRVGSTHGNSIA | EEATRAK | QQYHRLPLF | 1.86 2.23 1.83 2.27 2.45 2.16 | 2.13 | 2/18 (2.68) |
| MLSEVLHMLGVKKNSIA | DLVLRAN | QQYHRLPLM | ND ND ND 1.24 ND ND | 1.24 | 0/18 |
| KIGMTLNQLQHKKNNVA | DLVMREN | QQYFRLPLS | 1.61 ND 2.84 1.33 ND 1.53 | 1.83 | 1/18 (2.58) |
| MISNVMNTLTHVGNNVA | DLSEREN | QQYFRLPLS | 0.31 0.73 0.24 0.37 0.43 0.68 | 0.46 | 1/18 (2.58) |
| TISQLHNMGTFAINSVA | QASIRNA | QQYDRLPLI | 1.30 0.95 0.93 0.69 1.17 0.93 | 1.00 | 1/18 (4.46) |
| QIYQAMHTLSQMKDNVA | DVNERGM | QQYFRLPLS | 0.41 0.29 0.15 0.21 0.43 0.50 | 0.33 | 1/18 (3.04) |
| MISQLYNMGQFAINSVA | QGQTRNE | QQYDRLPLM | 2.03 1.37 0.87 1.40 0.74 1.31 | 1.29 | 0/18 |
| MVNGIMDHLSKNVNSVA | ETETRNS | QQYDRLPLS | 1.87 2.25 3.12 3.67 3.04 3.07 | 2.84 | 2/18 (2.14) |
| HITYGMMVHGRHSSSIA | QAEERAK | QQYDRLPLI | 1.04 0.62 0.94 0.53 1.29 1.27 | 0.95 | 1/18 (1.62) |
| KIGATLNTLYEKADNVA | DLVEREN | QQYHRLPLS | 0.77 0.51 0.22 0.35 0.42 1.25 | 0.59 | 0/18 |
| MISQVMGLNNMYKSSVA | QAEERVS | QQYDHLPLS | 0.63 0.79 0.67 0.59 0.87 0.65 | 0.70 | 0/18 |
| IVSQVMLWGHLAKNSIA | EAQTRLN | QQYDRLPLF | ND 0.98 ND 2.40 ND ND | 1.69 | 0/18 |
| KISQMARVGSTHSNSIA | EVVTRMK | QQYHRLPLA | 0.85 1.55 1.09 1.05 1.18 1.37 | 1.18 | 2/18 (3.17) |

Repeated from above, the 5 best binders with a signal in all replicates:

CDR-L1,CDR-L2,CDR-L3,"replicates, log10 nM","mean, log10 nM",signal with controls
HLGLATMLEAQVRNSVA,NNSTRES,QQYDRLPLS,0.06 0.34 -0.03 0.03 0.00 0.21,0.10,0/18
KLTSVTGTEKVRGNNVA,EMETREK,QQYNRLPLA,0.11 0.16 0.16 0.15 -0.01 0.33,0.15,2/18 (2.63)
KISQMVKVGSTHSNSIA,EEQTRAN,QQYHRLPLS,0.24 0.43 0.40 0.22 0.11 0.54,0.32,0/18
QIYQAMHTLSQMKDNVA,DVNERGM,QQYFRLPLS,0.41 0.29 0.15 0.21 0.43 0.50,0.33,1/18 (3.04)
HITMGMYVSGRYKSNIA,QAETREK,QQYDRLPLT,0.46 0.25 0.31 0.51 0.13 0.57,0.37,0/18

The range of this assay differs from that of the first round, and the authors advise against merging the two. The authors averaged sequences with at least three values out of six and counted those with two or fewer as poor binders. The parent sequence was in this pool as ten entries: three were never detected, three once, and four in most replicates, with averages from 0.34 to 2.37.

From the AlphaSeq antibody data of Li et al. 2023 (doi:10.1038/s41467-023-39022-2), copy in the FLAb collection.